Assay results as given in publication PMC11906766 (Scientific Reports, 2025).

Sequences of proteins named here, by UniProt entry; tags and fusion partners are left off.
UniProt P21397, whole entry: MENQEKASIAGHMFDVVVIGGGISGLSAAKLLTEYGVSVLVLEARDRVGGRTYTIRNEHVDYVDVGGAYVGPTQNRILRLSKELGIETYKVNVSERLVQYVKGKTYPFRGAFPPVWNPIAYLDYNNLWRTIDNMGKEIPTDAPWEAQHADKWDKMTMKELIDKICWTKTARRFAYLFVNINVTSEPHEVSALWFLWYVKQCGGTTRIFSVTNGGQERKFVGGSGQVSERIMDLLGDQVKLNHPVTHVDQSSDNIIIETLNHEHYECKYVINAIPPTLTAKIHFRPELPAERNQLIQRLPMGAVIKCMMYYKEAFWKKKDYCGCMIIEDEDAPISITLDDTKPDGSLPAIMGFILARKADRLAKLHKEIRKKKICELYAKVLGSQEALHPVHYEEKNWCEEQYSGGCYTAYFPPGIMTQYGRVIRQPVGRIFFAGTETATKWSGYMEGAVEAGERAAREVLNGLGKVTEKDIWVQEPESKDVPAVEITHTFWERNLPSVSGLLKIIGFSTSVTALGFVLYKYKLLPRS

Molecular target: hMAO-A (Homo sapiens, UniProt P21397)
Experiment: hMAO-A inhibition assay
Format: biochemical
Settings: % inhibition at 0.1 µM

C#CCN(C)CCCOc1ccc(Cl)cc1Cl [Clorgyline, reference compound]
hMAO-A % inhibition: 79.9% ± 0.46 ^c

Marks after values point to notes of the source that are not given here.
